{"source": "patent US11504379B2", "about": "“Amide compound, and Pin1 inhibitor, therapeutic agent for inflammatory diseases and therapeutic agent for cancer that use the same” (Hiroshima University, priority 2017, dated 2022)", "system": "non-alcoholic steatohepatitis (NASH) model mice (HFDT)", "assay": "NASH treatment study in HFDT-fed NASH model mice", "conditions": "8 weeks, oral 5.0 mg/kg/day three times a week, FIG. 1 (C)", "experimental": "Animal experiments were performed using non-alcoholic steatohepatitis (NASH) model mice to test the compounds according to the present invention for the therapeutic effect on NASH.\nNASH model mice (hereinafter referred to as “NASH mice”) were produced by feeding a high-fat diet containing trans fatty acids (HFDT) to individual male laboratory mice (C57BL/6J) for 8 weeks. […] In addition, a normal diet was given to individual male laboratory mice (C57BL/6J) for 8 weeks to prepare control mice."}
{"smiles": "O=C1C=CC(=O)c2c(O)cccc21", "note": "[Juglone, reference compound]", "values": [{"measurement": "fasting blood glucose level", "value": "abnormal increase"}]}
